Laboratory results from publication PMC7017074, “Krebs Cycle Intermediate-Modified Carbonate Apatite Nanoparticles Drastically Reduce Mouse Tumor Burden and Toxicity by Restricting Broad Tissue Distribution of Anticancer Drugs” (Cancers, 2020).

Assay: Animal biodistribution study (organ and tumor distribution of DOX)
Assay type: in vivo, Balb/c mice
Conditions: 4T1 tumor mice, IV DOX 5 mg/kg, 2 h

DOX in brain: 0.29 ± 0.02 ng/mg
SMILES: COc1cccc2c1C(=O)c1c(O)c3c(c(O)c1C2=O)C[C@@](O)(C(=O)CO)C[C@@H]3O[C@H]1C[C@H](N)[C@H](O)[C@H](C)O1 [Free DOX, doxorubicin]
